Measurements published in PMC7470810 (Acta Pharmacologica Sinica, 2019).

How the values were obtained:
[1] = rat, in vivo
[2] = target: T1, BCRP (Homo sapiens, UniProt Q9UNQ0); conditions: MDCKII-BCRP cells
[3] = target: T1, BCRP; conditions: HCMEC/D3 cells, AZT 1 μM, 120 min

Fluorescein sodium
leakage of fluorescein sodium into brain (BBB integrity), BDL vs SO rats [1]: did not impair the integrity of the BBB

Ko143
effect of incubation with Ko143 on uptake of AZT ([2]; AZT 1 μM, 120 min): markedly increased | effect of coincubation with Ko143 on uptake of AZT [3]: markedly increased

unconjugated bilirubin
effect of unconjugated bilirubin on uptake of AZT ([2]; unconjugated bilirubin 0, 10 and 25 μM): concentration-dependently increased
